Laboratory results published in patent US6630120B1, “Agents to increase the uptake of pharmaceuticals and diagnostic substances into solid tumors” (priority 1999, dated 2003).

Protein sequences, listed by entry. Tags and fused reporters are not part of them.
UniProt P25023, whole entry: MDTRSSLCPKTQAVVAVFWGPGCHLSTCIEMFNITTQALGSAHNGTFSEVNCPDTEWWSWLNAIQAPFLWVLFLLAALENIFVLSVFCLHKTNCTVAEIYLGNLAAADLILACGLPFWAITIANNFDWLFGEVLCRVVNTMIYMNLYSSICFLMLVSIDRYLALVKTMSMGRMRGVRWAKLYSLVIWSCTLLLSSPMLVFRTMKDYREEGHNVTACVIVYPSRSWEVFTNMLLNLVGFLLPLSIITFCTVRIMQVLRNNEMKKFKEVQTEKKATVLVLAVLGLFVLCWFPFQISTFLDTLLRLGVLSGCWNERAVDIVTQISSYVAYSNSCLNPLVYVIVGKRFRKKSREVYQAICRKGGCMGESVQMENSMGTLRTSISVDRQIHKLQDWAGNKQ

Target: T1, B2 receptors (Rattus norvegicus, UniProt P25023)
T1 construct: from tissue; host or cells: live male Fisher rats with subcutaneous MAT B-III tumours (tumour vasculature)
Experiment: Effect of B2 receptor blocking on the uptake of carboplatin into tumors
Type: in vivo
Settings: FIG. 15; HOE-140 100 μg/kg infused 15 minutes starting 5 minutes prior to Cereport infusion (1.0 1μg/kg)
Description: In one set of experiments, the B2 receptor blocking agent D-Arg[Hyp^3-Thi^5-D-Tic^7-Oic^8] (HOE-140) (100 μg/kg) was infused for 15 minutes starting 5 minutes prior to the Cereport™ infusion (1.0 1μg/kg) and extending throughout the 10 minute Cereport™ infusion.

D-Arg[Hyp^3-Thi^5-D-Tic^7-Oic^8] [HOE-140]
effect on the carboplatin uptake effects of Cereport in inner and outer tumor: nullified
